Counter-ions that a name gives are not always drawn.
Legend:
[1] = Hygroscopicity and physical stability of the salt under stress conditions (XRPD, DSC, DVS); type: physicochemical; settings: 2 days at 40° C. and 75% RH
L6-myotubes [2] = test: Measurement of intracellular cAMP levels in differentiated L6 cells; type: cell-based; settings: agonist final concentration 1×10^−5 M, 15 min, alpha screen cAMP kit
Description: (§1) L6-myoblasts were grown in Dulbecco's Modified Eagle's Medium (DMEM) containing 1 g/L glucose supplemented with 10% fetal bovine serum, 2 mM L-Glutamine, 50 U/mL penicillin, 50 μg/mL streptomycin and 10 mM HEPES. Cells were plated at 1×10^5 cells per mL in 24-well plates. After reaching 90% confluence the cells were grown in medium containing 2% FBS for 7 days where upon cells differentiated into myotubes.
Differentiated cells were serum-starved overnight and stimulated with an agonist, final concentration 1×10^−5 M, for 15 min in stimulation buffer (HBSS supplemented with 1% BSA, 5 mM HEPES and 1 mM IBMX, pH 7.4). The medium was aspirated and 100 μL of 95% EtOH was added to each well of the 24-well plate and cells were kept at −20° C. overnight. The EtOH was allowed to evaporate and 500 μL of lysis buffer (1% BSA, 5 mM HEPES and 0.3% Tween-20, pH 7.4) was added to each well. The plate was kept at −80° C. for 30 min and then at −20° C. until the day of detection when the samples were thawed. Intracellular cAMP levels were detected using an alpha screen cAMP kit (6760635D from Perkin Elmer).

L6-myotubes [3] = test: Glucose uptake (3H-2-deoxyglucose) in differentiated L6-myotubes; type: cell-based; settings: agonist final concentration 1×10^−5 M
Description: as §1
Differentiated L6-myotubes were serum-starved overnight in medium containing 0.5% fatty-acid free BSA and stimulated with an agonist, with a final concentration of 1×10^−5 M. After 1 h 40 min the cells were washed with warm glucose free medium or PBS twice and another portion of agonist was added to the glucose free medium. After 20 min the cells were exposed to 50 nM ^3H-2-deoxyglucose for 10 min before washed with ice cold glucose free medium or PBS three times and lysed with 0.2 M NaOH, 400 μL/well, for 1 h at 60° C. The cell lysate was mixed with 4 mL scintillation buffer (Emulsifier Safe, Perkin Elmer) and the radioactivity was detected in a β-counter (Tri-Carb 4810TR, Perkin Elmer).

SMILES: CC(C)(C)NCC(O)c1cncc(F)c1.Cc1ccc(S(=O)(=O)O)cc1 (stereo not drawn) [Comparative Salt Example 7]
- hygroscopicity [1]: slightly hygroscopic

SMILES: CC(C)(C)NC[C@H](O)c1cncc(F)c1.O=C(O)C(=O)O [Comparative Salt Example 9]
- hygroscopicity [1]: not hygroscopic
- physical stability [1]: physically stable

SMILES: CC(C)(C)NC[C@H](O)c1cncc(F)c1.O=C(O)/C=C\C(=O)O [Comparative Salt Example 4]
- hygroscopicity [1]: slightly hygroscopic

SMILES: CC(C)(C)NC[C@H](O)c1cncc(F)c1 [Compound Example 1, (R)-2-(tert-Butylamino)-1-(5-fluoropyridin-3-yl)ethan-1-ol]
- intracellular cAMP activity relative to that of isoproterenol (L6-myotubes [2]): less than 50%
- glucose uptake activity relative to that of isoproterenol (L6-myotubes [3]): more than 75%

SMILES: CC(C)(C)NC[C@H](O)c1cncc(F)c1 [Salt Example 1]
- hygroscopicity [1]: not hygroscopic
- physical stability [1]: physically stable
- hygroscopicity ([1]; listed as hemitartrate salt): low hygroscopicity

From patent US20250042856A1, “CRYSTALLINE FORM OF (R)-2-(TERT-BUTYLAMINO)-1-(5-FLUOROPYRIDIN-3-YL)-ETHAN-1-OL HEMI-TARTRATE SALT FOR THE TREATMENT OF HYPERGLYCEMIA AND DIABETES 2” (ATROGI AB, priority 2021, published 2025)
